The results in this text go back to ChEMBL document CHEMBL1255252, “E240V substitution increases catalytic efficiency toward ceftazidime in a new natural TEM-type extended-spectrum beta-lactamase, TEM-149, from Enterobacter aerogenes and Serratia marcescens clinical isolates” (2008).

Assay [1] is described as follows: Activity of Beta-lactamase TEM-149 expressed in Escherichia coli HB101.
Assay [2] can be described thus: Ratio of Kcat to Km for Beta-lactamase TEM-149 expressed in Escherichia coli HB101.
The nature of assay [3]: Activity of Beta-lactamase TEM-149 T182M mutant expressed in Escherichia coli HB101.
Assay [4] is described as follows: Ratio of Kcat to Km for Beta-lactamase TEM-149 T182M mutant expressed in Escherichia coli HB101.
The nature of assay [5]: Activity of Beta-lactamase TEM-10.
A short description of assay [6]: Ratio of Kcat to Km for Beta-lactamase TEM-10.

A word on the kcat: it is the maximal rate divided by the concentration of active sites. One may read the kcat/Km as the turnover number divided by the Michaelis constant. As a reminder, the Km is the substrate concentration at which the rate is half of its maximum. For `O=C(Cc1cccs1)N[C@@H]1C(=O)N2C(C(=O)O)=C(/C=C/c3ccc([N+](=O)[O-])cc3[N+](=O)[O-])CS[C@H]12`, the kcat in assay [1] is 7.4 s⁻¹; in assay [3], 26 s⁻¹; in assay [5], 59 s⁻¹. In addition, the kcat/Km in assay [2] is 370000 M⁻¹ s⁻¹; in assay [4] it was 1.04e+06 M⁻¹ s⁻¹; in assay [6], 1.25e+06 M⁻¹ s⁻¹. Also, the Km in assay [3] came to 25 µM; in assay [5], 47 µM.
